Test results: PMC7856178 (Archives of biochemistry and biophysics, 2020)

Sequences of proteins named here, by UniProt entry; tags and fusion partners are left off.
UniProt P08684, whole entry: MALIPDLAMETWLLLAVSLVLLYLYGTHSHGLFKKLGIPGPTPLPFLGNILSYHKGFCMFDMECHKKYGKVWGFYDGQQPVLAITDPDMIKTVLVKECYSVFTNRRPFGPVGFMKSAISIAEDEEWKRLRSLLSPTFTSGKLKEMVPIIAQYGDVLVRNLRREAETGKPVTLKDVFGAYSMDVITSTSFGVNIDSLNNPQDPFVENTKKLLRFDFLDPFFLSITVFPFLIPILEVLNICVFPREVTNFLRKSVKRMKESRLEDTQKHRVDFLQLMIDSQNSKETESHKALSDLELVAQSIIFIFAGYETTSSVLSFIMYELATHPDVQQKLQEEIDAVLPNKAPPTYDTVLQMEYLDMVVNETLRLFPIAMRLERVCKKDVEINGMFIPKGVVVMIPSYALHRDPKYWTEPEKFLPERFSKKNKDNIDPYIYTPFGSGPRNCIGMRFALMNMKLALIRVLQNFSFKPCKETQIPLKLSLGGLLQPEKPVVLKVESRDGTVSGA

Molecular target: CYP3A4 (Homo sapiens, UniProt P08684)
Test: Rate of O-demethylation of ivermectin by pooled HLM
Type: in vitro ADME
Details: 100 μM substrate; for Turnover rate (per metabolizing P450 enzyme): per CYP3A4

Substance: Ivermectin
- Turnover rate (per CPR) (HLM-A): 8.0 ± 1.8 min⁻¹
- Turnover rate (per metabolizing P450 enzyme) (HLM-A): 4.9 ± 1.1 min⁻¹
- Turnover rate (per CPR) (HLM-N1): 6.0 ± 1.2 min⁻¹
- Turnover rate (per metabolizing P450 enzyme) (HLM-N1): 4.7 ± 0.9 min⁻¹
- Turnover rate (per CPR) (HLM-N2): 6.3 ± 2.0 min⁻¹
- Turnover rate (per metabolizing P450 enzyme) (HLM-N2): 2.8 ± 0.9 min⁻¹
- Turnover rate (per CPR) (HLM-N3): 6.5 ± 2.3 min⁻¹
- Turnover rate (per metabolizing P450 enzyme) (HLM-N3): 2.4 ± 0.9 min⁻¹
